This note sets out measurements from PubChem BioAssay AID504332 (National Center for Advancing Translational Sciences (NCATS), 2011).

Amino acid sequences for entries named in this document (tags omitted). A change or cut given only in a name is not applied to a line headed by its entry.
UniProt Q96KQ7: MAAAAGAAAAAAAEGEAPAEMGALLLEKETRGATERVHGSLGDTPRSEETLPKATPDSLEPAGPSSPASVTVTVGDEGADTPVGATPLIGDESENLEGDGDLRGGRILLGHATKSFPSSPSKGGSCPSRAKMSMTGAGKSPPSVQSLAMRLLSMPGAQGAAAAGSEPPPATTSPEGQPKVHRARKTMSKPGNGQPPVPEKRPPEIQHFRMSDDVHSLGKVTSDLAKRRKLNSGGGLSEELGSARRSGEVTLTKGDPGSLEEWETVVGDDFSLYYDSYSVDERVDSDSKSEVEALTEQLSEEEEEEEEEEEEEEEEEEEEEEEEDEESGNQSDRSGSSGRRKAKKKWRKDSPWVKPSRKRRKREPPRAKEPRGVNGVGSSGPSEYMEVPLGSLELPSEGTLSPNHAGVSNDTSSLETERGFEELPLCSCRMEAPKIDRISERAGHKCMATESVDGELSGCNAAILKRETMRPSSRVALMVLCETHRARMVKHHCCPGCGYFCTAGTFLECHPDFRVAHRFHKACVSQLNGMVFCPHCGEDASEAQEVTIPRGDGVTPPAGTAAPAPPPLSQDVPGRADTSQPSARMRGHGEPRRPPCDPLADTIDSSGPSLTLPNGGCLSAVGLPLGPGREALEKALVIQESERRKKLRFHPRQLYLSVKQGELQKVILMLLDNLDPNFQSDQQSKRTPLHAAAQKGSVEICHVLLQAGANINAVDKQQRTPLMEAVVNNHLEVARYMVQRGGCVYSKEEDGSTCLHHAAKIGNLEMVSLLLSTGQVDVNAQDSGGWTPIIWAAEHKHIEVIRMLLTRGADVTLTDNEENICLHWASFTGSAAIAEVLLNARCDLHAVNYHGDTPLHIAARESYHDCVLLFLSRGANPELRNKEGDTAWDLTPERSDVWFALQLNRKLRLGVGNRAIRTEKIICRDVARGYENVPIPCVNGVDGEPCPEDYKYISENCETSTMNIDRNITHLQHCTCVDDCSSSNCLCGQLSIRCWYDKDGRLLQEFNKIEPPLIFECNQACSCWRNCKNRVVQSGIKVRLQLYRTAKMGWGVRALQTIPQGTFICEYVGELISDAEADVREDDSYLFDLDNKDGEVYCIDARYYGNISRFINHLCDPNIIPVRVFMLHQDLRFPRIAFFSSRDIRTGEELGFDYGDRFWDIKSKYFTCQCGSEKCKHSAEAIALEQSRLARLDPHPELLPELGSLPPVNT

This is a selection; strong and weak results do not stand in their true shares. Inconclusive results are not listed. Active and inactive are the calls of the source. The call rests on the fitted dose curve; in most records, active means well fitted inhibition curve with a large enough effect; inconclusive means small, poorly fitted or top-dose-only effect; inactive means no such curve, though single readings can be large or run the other way.
On the % scale 0 is the no-effect control and ±100 the full control effect; potency means the concentration at half of the fitted maximal effect.

The target of this test is Histone-lysine N-methyltransferase EHMT2 (Homo sapiens) (UniProt Q96KQ7). The experiment in a line: qHTS Assay for Inhibitors of Histone Lysine Methyltransferase G9a. Further: nearly all actives have a fitted effect of over 75% in size. Particulars: G9a H3K9 monomethylation, AlphaScreen, 2 h; series mostly up to 59 µM; activity, negative = inhibition: at the top concentration. A general note: Quantitative high-throughput screening tests each substance at several concentrations.
In the case of `COc1ccc2cc([C@@H](C)C(=O)O)ccc2c1`, the “activity, negative = inhibition” value was inactive: -3.27%. For the compound `Cc1cnc(C(=O)NCCc2ccc(S(=O)(=O)NC(=O)NC3CCCCC3)cc2)cn1`, the Potency result was “inactive”. The same measure, in the same setting: in the case of `Cc1ccc(-c2csc(Nc3ccccc3)[n+]2CCc2ccccc2)cc1` it was active: 22.4 µM; in that of `CCCCc1oc2ccccc2c1C(=O)c1cc(I)c(OCCN(CC)CC)c(I)c1`, “inactive”; in that of `CC1(C)N([O-])c2cc([N+](=O)[O-])ccc2[N+]1=O`, active: 1.58 µM. Same read-out and setting: for `CC[n+]1c(/C=C/N(C)c2ccccc2)oc2ccc(Cl)cc21` the value was active: 10 µM. For `O=C(O)COCCN1CCN(C(c2ccccc2)c2ccc(Cl)cc2)CC1` (stereo not drawn), the “activity, negative = inhibition” value was inactive: -35%. On to `COc1ccc2cc([C@H](C)C(=O)O)ccc2c1`, for which the Potency entry was “inactive”.

Regarding `O=C(O)COCCN1CCN([C@@H](c2ccccc2)c2ccc(Cl)cc2)CC1`, the “activity, negative = inhibition” value was inactive: 20.5% [at 21.5 µM].

Take `Nc1n[nH]c(CO)n1`: the Potency is active: 70.8 µM.

As to `CC[n+]1c(/C=C/N(C)c2ccccc2)oc2ccccc21`, the Potency is active: 44.7 µM. In the case of `COc1ccc2cc(C(C)C(=O)O)ccc2c1` (stereo not drawn), the “activity, negative = inhibition” value was inactive: 13.3%. As for `Cc1ccc(C2=NCN(c3ccc(C(=O)O)cc3)C(=S)N2)cc1`, the Potency was active: 50.1 µM.
